These results are taken from US20030148396A1 (CITY OF NAGOYA, published 2003).

Chains of the proteins cited; added tags and fusions are not shown.
UniProt Q04206, whole entry: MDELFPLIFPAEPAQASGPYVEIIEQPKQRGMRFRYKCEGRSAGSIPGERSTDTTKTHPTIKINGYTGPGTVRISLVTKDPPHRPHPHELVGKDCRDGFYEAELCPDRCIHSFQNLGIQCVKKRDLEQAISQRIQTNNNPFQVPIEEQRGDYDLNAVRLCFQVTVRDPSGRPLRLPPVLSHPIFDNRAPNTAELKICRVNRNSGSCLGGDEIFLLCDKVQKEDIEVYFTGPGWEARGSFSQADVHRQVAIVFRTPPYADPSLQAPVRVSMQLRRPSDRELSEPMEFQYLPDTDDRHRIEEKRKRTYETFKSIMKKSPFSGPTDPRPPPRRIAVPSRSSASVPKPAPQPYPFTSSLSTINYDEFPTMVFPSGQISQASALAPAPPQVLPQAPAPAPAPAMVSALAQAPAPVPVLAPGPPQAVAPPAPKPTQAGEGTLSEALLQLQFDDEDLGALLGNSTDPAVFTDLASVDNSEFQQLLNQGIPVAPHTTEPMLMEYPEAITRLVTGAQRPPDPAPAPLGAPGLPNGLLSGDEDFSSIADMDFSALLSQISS

The assay concerns the target T1, 35S-methionine-labeled p65 (UniProt Q04206, 35S-methionine label).
T1 construct: the two-hybrid bait is human p65; also called in vitro synthesized p65 protein; RelA
As to the kind of experiment: GST pull-down on glutathione-sepharose beads, autoradiography of 35S-labeled p65. On the procedure: For in vitro protein-protein interaction studies, an equal amount of the in vitro-translated ³⁵S-methionine-labeled p65 was incubated with 5 mg of purified GST-RAI fusion proteins or GST alone (as a negative control) that were bound to glutathione-sepharose beads at 25° C. for 1 h in buffer A (250 ml).
The beads were washed by resuspension and centrifugation five times with 1 ml of ice-cold binding buffer A containing 0.1% NP-40. Bound proteins were eluted with an equal volume of SDS loading buffer, boiled for 3 min, dissolved into 5-20% SDS-PAGE, and visualized by autoradiography.

B1: GST alone (negative control) (other, UniProt P08515 1-218, looked up)
chain: MSPILGYWKIKGLVQPTRLLLEYLEEKYEEHLYERDEGDKWRNKKFELGLEFPNLPYYIDGDVKLTQSMAIIRYIADKHNMLGGCPKERAEISMLEGAVLDIRYGVSRIAYSKDFETLKVDFLSKLPEMLKMFEDRLCHKTYLNGDHVTHPDFMLYDALDVVLYMDPMCLDAFPKLVCFKKRIEAIPQIDKYLKSSKYIAWPLQGWQATFGGGDHPPK
notes: also called control GST protein
As for B1, the binding result is on record as “no binding”.
